{
  "source": "patent US9944583B2",
  "about": "“Methods for ameliorating and preventing central nervous system inflammation” (THE REGENTS OF THE UNIVERSITY OF CALIFORNIA, priority 2007, dated 2018)",
  "key": {"Nox2 [1]": {"test_system": "Nox2", "experiment": "Nox expression in primary neuronal cultures (immunocytochemistry, Western blot)", "details": "ketamine 0.5 μM or IL-6 10 ng/ml, 24 h"}, "IL-6 mRNA [2]": {"test_system": "IL-6 mRNA", "experiment": "cytokine mRNA in forebrain after in vivo ketamine", "details": "ketamine 30 mg/kg on two consecutive days"}, "NADPH oxidase (Nox)": {"test_system": "NADPH oxidase (Nox)", "experiment": "Nox activity in synaptosomes by NADPH-dependent oxygen consumption (oximetry)", "type": "biochemical, mouse", "details": "synaptosomes from mice given ketamine 30 mg/kg on two consecutive days; control 4.67±0.98", "method": "Synaptosomal preparations. […] Mice were euthanized by exposure to a lethal dose of inhaled halothane, followed by cervical dislocation. Brains were rapidly removed, cortices dissected and homogenized in 10 volumes of ice-cold isolation buffer (0.32M sucrose, 1 mM EDTA, 10 mM Tris-HCl buffer, pH 7.4, 10 mM glucose). The homogenate was centrifuged at 3100 rpm for 3 min at 4° C., and the supernatant collected, and the pellet was re-homogenized in half the volume of isolation buffer and centrifuged again. Synaptosomal were then isolated as described (see reference 30, below) modified as follows, the pooled supernatants were mixed with PERCOLL™ (Sigma, St. Louis, Mo.) to a final concentration of 15%, and then layered onto a step gradient of 23% and 40% PERCOLL™, and centrifuged at 16,000 rpm for 5 minutes at 4° C. The uppermost band was extracted, rinsed in isolation buffer, centrifuged and resuspended in synaptosomal buffer (120 mM NaCl, 4.7 mM KCl, 2.2 mM CaCl2, 1.2 mM MgCl2, 25 mM HEPES, 1.2 mM MgSO4, 1.2 mM KH2PO4, 10 mM glucose).\nOxygen consumption studies (oximetry). O2 consumption studies on synaptosomes are carried out. […] Studies were carried out to optimize the concentration of synaptosomal protein required, and to confirm stability and viability of synaptosomes and their mitochondria for up to 6 h."}, "IL-6 mRNA [3]": {"test_system": "IL-6 mRNA", "experiment": "cytokine mRNA by RT-PCR in ketamine-treated primary neuronal cultures", "details": "24 hours after ketamine 0.5 μM"}, "Nox2 [4]": {"test_system": "Nox2", "experiment": "IL-6 i.p. on two consecutive days in mice: brain and synaptosomal Nox", "details": "IL-6 5 μg/kg on two consecutive days"}},
  "data": [
    {"molecule": "CNC1(c2ccccc2Cl)CCCCC1=O", "note": "(stereo not drawn) [ketamine]", "values": [
      {"measurement": "expression of Nox2", "setting": "Nox2 [1]", "value": "induced"},
      {"measurement": "levels of IL-6 mRNA in brain", "setting": "IL-6 mRNA [2]", "value": "increased"},
      {"measurement": "NADPH-induced oxygen consumption", "setting": "NADPH oxidase (Nox)", "value": "7.9±1.8", "unit": "nmol O2/mg protein/min"},
      {"measurement": "IL-6 mRNA level with respect to control", "setting": "IL-6 mRNA [3]", "value": "180±18.1", "unit": "%"}
    ]},
    {"molecule": "IL-6: pro-inflammatory cytokine interleukin-6", "values": [
      {"measurement": "expression of Nox2", "setting": "Nox2 [1]", "value": "induced"},
      {"measurement": "Nox2 mRNA in brain, Nox protein and activity in synaptosomes", "setting": "Nox2 [4]", "value": "increases"}
    ]}
  ]
}
